These are literature values, as cited in article PMC6832895, “Evaluation of Cyclic Peptide Inhibitors of the Grb7 Breast Cancer Target: Small Change in Cargo Results in Large Change in Cellular Activity” (Molecules, 2019).

Chains of the proteins cited; added tags and fusions are not shown. Residues count along the entry.
UniProt Q14451, 431-527 limits assumed: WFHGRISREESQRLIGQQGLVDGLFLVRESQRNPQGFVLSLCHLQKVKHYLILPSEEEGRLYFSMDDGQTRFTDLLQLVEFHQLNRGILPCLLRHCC

This data set deals with Grb7-SH2 domain (Homo sapiens, UniProt Q14451). The conditions noted are these: Table S1; 50 mM Na3PO4, 150 mM NaCl, 1 mM DTT (pH 7.4); ref [2] Gunzburg et al., Sci. Rep. 2016; cited from earlier work.

Molecules are shown by their SMILES.

Turning to `NC(=O)CC1NC(=O)C(CC(=O)O)NC(=O)C(Cc2ccc(O)cc2)NC(=O)CNC(=O)C(CCC(=O)O)NC(=O)C(Cc2ccccc2)NC(=O)C2COCC=CCOCC(NC1=O)C(=O)NC(Cc1ccccc1)C(=O)N1CCCC1C(=O)NC(C(N)=O)CSCC(=O)N2` (stereo not shown), the Kd was 1500 nM.

One may read the Kd as the constant that tells how readily two partners part at equilibrium.
